Experimental data as given in patent US20260232826A1, “ANTIBODY-DRUG CONJUGATES AND THEIR USES” (Mablink Bioscience, priority 2022, published 2026).

Tests used:
[1] = Pulmonary inflammatory and toxicity evaluation in mice; parameters: species or system C57/BL6 mice; conditions: mouse, in vivo
Description: Bleomycin has been widely used in rodents to model pulmonary fibrosis for the study of mechanisms involved in fibrogenesis and for evaluation of potential therapies. To assess ADC pulmonary toxicity, bleomycin-induced pulmonary fibrosis was induced in mice following known procedures as described by Walter and Kleeberger, Mouse Models of Bleomycin-Induced Pulmonary Fibrosis, 2008, Curr. Protoc. Pharmacol. 40:5.46.1-5.46.17. At day 0, 4 and 8, female C57/BL6 mice (Janvier Labs, Le Genest-Saint-Isle, France) were lightly anesthetized with isoflurane and intranasally administered with 20 μL of 1 mg/kg bleomycin PBS solution (Bleomycine Bellon, 15 mg for injection) or PBS (negative control mice). Non-bleomycin-conditioned mice were included as a negative control group. At day 11, mice (n=6 animals per group) were treated with tested conjugates (10 mg/kg i.p.) and were monitored for apparent signs of toxicity and weight loss during the duration of the experiment. […] At day 25 all mice were sacrificed, broncho-alveolar supernatant was obtained (by broncho-alveolar lavage) and lungs organs were harvested, weighted, and fixed in 0.1% (w/v) formaldehyde in PBS. After fixation, lungs were rinsed with a 0.02% (w/v) sodium azide in PBS solution and embedded in paraffin for histological staining. Slides were stained with anti-CD45 antibody (Abcam cat #ab10558, 1:500) to quantify level of leucocyte infiltration in the lungs. Secondary biotinylated goat anti-rabbit antibody (Vector Laboratories cat #BA-1000, 1:300) and Avidin-HRP (Vector Laboratories cat #A-2004) were used for detection. Histological experiments and imaging were outsourced at the Centre d'Imagerie Quantitative Lyon-Est (CiQLE) platform (Lyon, France). Random sections of IHC images (30% zoomed) were processed using native functionalities of the Fiji software (developed and maintained by the Laboratory for Optical and Computational Instrumentation of the University of Wisconsin-Madison, USA) to count CD45 positive cells within slides (1 slide per lung) and assess level of leucocyte infiltration. Monitoring of total counts of lymphocytes (CD3/CD4), eosinophils (CCR3/SiglecF), neutrophils (Ly6g/Ly6C) and macrophages (F4/80) in broncho-alveolar supernatants obtained from non-bleomycin-conditioned mice was done by flow cytometry. Inflammatory cytokines levels in broncho-alveolar supernatants obtained from non-bleomycin-conditioned mice were quantified by ELISA. IL-2, IL-4, IL-5, IL-6, IL-9, IL-10, IL-13 were quantified using Bio-Plex Pro™ Mouse Cytokine Th2 Panel (Bio-Rad cat #L60000UKVT), following manufacturer's instructions. TGF-β and IL-17 were quantified using Mouse TGF-beta 1 DuoSet and Mouse IL-17 DuoSet ELISA kits respectively (R&D systems cat #DY1679 and DY421), following manufacturer's instructions.
Statistical significance was evaluated using one-way ANOVA (Tukey method) using GraphPad Prism 9 software. p-values are represented as * (p<0.033), ** (p<0.002), *** (p<0.0002), and **** (p<0.0001) and “ns” stands for non-significant (p>0.123).

[2] = mouse, in vivo

B1: F-LALA-VA-EXA (conjugate)
heavy: EVQLVESGGGVVQPGRSLRLSCSASGFTFSGYGLSWVRQAPGKGLEWVAMISSGGSYTYYADSVKGRFAISRDNAKNTLFLQMDSLRPEDTGVYFCARHGDDPAWFAYWGQGTPVTVSSASTKGPSVFPLAPSSKSTSGGTAALGCLVKDYFPEPVTVSWNSGALTSGVHTFPAVLQSSGLYSLSSVVTVPSSSLGTQTYICNVNHKPSNTKVDKKV[gap - human IgG1 Fc with changes]
light: DIQLTQSPSSLSASVGDRVTITCSVSSSISSNNLHWYQQKPGKAPKPWIYGTSNLASGVPSRFSGSGSGTDYTFTISSLQPEDIATYYCQQWSSYPYMYTFGQGTKVEIKRTVAAPSVFIFPPSDEQLKSGTASVVCLLNNFYPREAKVQWKVDNALQSGNSQESVTEQDSKDSTYSLSSTLTLSKADYEKHKVYACEVTHQGLSSPVTKSFNRGEC
modifications: N-methyl
inflammatory cytokine levels in broncho-alveolar supernatants compared to untreated group [1]: no significant increase in cytokine levels
leucocyte inflammatory infiltration (IHC CD45) compared to untreated group [1]: no significant increase
lymphocyte counts in broncho-alveolar supernatants compared to untreated control group [1]: significant increase in lymphocyte counts
macrophages, neutrophils and eosinophils counts in broncho-alveolar supernatants compared to untreated control group [1]: no statistically significant increase
leucocyte inflammatory infiltration (IHC CD45) compared to bleomycin-conditioned control group ([1]; ip, 10 mg/kg): no significant increase
dose dependent adverse systemic or local effects [2]: did not cause any dose dependent adverse systemic or local effects
weight of the thymus and spleen at final necropsy compared to the control group [2]: slight decrease in the weight of the thymus and spleen
